This data set in a line: Conductivity of diluted samples (EPA method 120.1). Type of data set: physicochemical. The conditions noted are these: samples diluted with de-ionized water; Example materials at 1% by volume in water. The procedure: To further evaluate the materials prepared in Examples I and II, samples of the materials are diluted with deionized water to provide material that contains 1% by volume of the respective material in water.
In order to test for conductivity the samples are each diluted with de-ionized water for analysis. The testing is completed using a Mettler Toledo Seven Excellence Meter with a conductivity probe following EPA method 120.1.

With `O=S(=O)(O)O` [Dilute sulfuric acid, sulfuric acid, reference compound], the Conductivity worked out at 556 mS/cm.
